Results from patent US20170313665A1, “HYDROXYALKYL-SUBSTITUTED PHENYLTRIAZOLE DERIVATIVES AND USES THEREOF” (BAYER PHARMA AKTIENGESELLSCHAFT, priority 2014, published 2017).

Amino acid sequences for entries named in this document (tags omitted).
UniProt P37288, whole entry: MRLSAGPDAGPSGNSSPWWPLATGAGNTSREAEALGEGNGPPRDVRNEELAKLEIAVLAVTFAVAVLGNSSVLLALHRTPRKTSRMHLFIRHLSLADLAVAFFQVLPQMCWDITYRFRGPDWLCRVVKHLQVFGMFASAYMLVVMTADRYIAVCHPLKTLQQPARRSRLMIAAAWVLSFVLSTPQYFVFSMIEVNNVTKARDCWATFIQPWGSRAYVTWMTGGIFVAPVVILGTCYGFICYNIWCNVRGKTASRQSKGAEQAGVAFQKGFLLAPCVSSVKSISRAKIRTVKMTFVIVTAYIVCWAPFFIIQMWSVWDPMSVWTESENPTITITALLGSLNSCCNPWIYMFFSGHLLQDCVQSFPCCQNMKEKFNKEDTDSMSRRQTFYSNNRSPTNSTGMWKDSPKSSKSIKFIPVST
UniProt P30518, whole entry: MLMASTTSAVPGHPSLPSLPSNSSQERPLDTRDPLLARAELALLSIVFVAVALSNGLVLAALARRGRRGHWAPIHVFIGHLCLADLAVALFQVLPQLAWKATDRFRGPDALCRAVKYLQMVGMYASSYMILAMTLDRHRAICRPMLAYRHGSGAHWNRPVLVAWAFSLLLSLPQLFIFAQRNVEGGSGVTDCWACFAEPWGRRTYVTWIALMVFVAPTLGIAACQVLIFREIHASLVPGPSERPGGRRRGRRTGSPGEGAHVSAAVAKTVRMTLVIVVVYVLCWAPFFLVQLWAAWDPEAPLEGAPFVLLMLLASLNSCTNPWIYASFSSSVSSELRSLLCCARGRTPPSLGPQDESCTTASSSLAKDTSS

Key:
human V1a receptor = human V1a receptor (Homo sapiens, UniProt P37288); experiment: Cellular in vitro assay for vasopressin receptor activity, V1a receptor cell line (aequorin luminescence); format: cell-based; details: read-out: IC50 hV1a; CHO cell line transfected with human V1a receptor; [Arg8]-vasopressin at EC50
human V2 receptor = human V2 receptor (Homo sapiens, UniProt P30518); experiment: Cellular in vitro assay for vasopressin receptor activity, V2 receptor cell line (CRE-luciferase); format: cell-based; details: read-out: IC50 hV2; CHO cell line transfected with human V2 receptor; [Arg8]-vasopressin at EC50

IC50 (human V1a receptor): 1.3 nM
IC50 (human V2 receptor): 6.7 nM
Structure (SMILES): COC(=O)Cn1nc(Cn2nc(-c3ccc(Cl)cc3)n(C[C@H](O)C(F)(F)F)c2=O)nc1-c1ccccc1Cl
